Measured values published in PubChem BioAssay AID1051 (The Scripps Research Institute Molecular Screening Center, 2008).
Only a part is listed here, and it is no random draw. Some tests of the compounds listed are not included; inactive here does not mean inactive elsewhere. Activity calls are given as the source filed them. Cut-off read from the data, not from the text of the source: active = TR-FRET ratio above about 2300; inactive = the rest.

Assay: TR-FRET detection interference compounds, primary screen, artefact control for PPARgamma SRC-1 recruitment agonists, biochemical, TR-FRET emission ratio (AID 1051)
Details: TR-FRET detection artefact counter-screen, at 8 µM, hits give high values

Q: For `O=C(NCC1(N2CCCCC2)CCCCC1)c1cc([N+](=O)[O-])ccc1Cl`, which TR-FRET ratio is on record?
A: inactive: 1600

Q: For `CCN1CCCC(OC(=O)C2(O)c3ccccc3C=Cc3ccccc32)C1` (stereo unspecified), which TR-FRET ratio is on record?
A: inactive: 1790

Q: With `C=CCN1CCN(CCOC(=O)C(O)(c2ccccc2)c2ccccc2)CC1` as the molecule, how does the TR-FRET ratio read?
A: inactive: 1910

Q: Which TR-FRET ratio does the source give for `CN(C)C1CCCC1OC(=O)C(O)(c1ccccc1)c1ccccc1` (stereo unspecified) here?
A: inactive: 2040

Q: Which TR-FRET ratio does the source give for `Cc1ccccc1C(=O)NCC1(N2CCCCC2)CCCCC1` here?
A: inactive: 1840

Q: Which TR-FRET ratio does the source give for `COc1cccc(C(=O)NCC2(N3CCCCC3)CCCCC2)c1` here?
A: inactive: 1690
